Details: pKa (base), measured, potentiometric

Structure (SMILES): CN(C)CCC(c1ccc(Cl)cc1)c1ccccn1 (stereo not shown) [Chlorpheniramine]
- pKa: 9.35

Source: publication PMC5074076, “Novel minimal physiologically-based model for the prediction of passive tubular reabsorption and renal excretion clearance” (European Journal of Pharmaceutical Sciences, 2016)
